Assays:
APOE∗3-Leiden.CETP mice [1] = test: Second efficacy study (35 days, with atorvastatin): plasma lipids; assay type: in vivo, mouse; conditions: day 35; NYX-PCSK9i 50 mg/kg BID PO, atorvastatin 4.9 mg/kg/day diet admix
Text: Animal experiments were approved by the governmental central committee on animal experiments (AVD5010020172064) and TNO’s animal welfare body (TNO-471 and TNO-482). Female APOE∗3-Leiden.CETP transgenic mice (11–16 weeks of age) were bred at the animal facility of TNO-InnoSer (Leiden, The Netherlands). Female animals were used in this study as they are more responsive to dietary cholesterol and fat than males and therefore typically develop atherosclerosis more rapidly than male APOE∗3-Leiden and APOE∗3-Leiden.CETP mice on cholesterol-containing diets ([33], [34]). […] Body weight, food intake, and clinical signs of behavior were monitored throughout the studies. […]
In both studies, blood samples were collected at weekly intervals via tail vein sampling after fasting the mice for 4 h. […] Total plasma cholesterol levels were determined using a Cholesterol CHOD-PAP kit according to the manufacturer’s instructions. Plasma HDL-C levels were determined by first precipitating apoB-containing lipids using PEG 6000/glycine and then utilizing the Cholesterol CHOD-PAP kit ([35]). Non-HDL-C levels were determined by subtracting HDL-C levels from total cholesterol levels ([32]). Group-pooled lipoprotein profiles were determined by FPLC analysis using an AKTApurifier 10 FPLC system (GE Healthcare, Chicago, IL). […]

APOE∗3-Leiden.CETP mice [2] = test: Second efficacy study: body weight, food intake, plasma ALT and AST; assay type: in vivo, mouse; design: unit not given here; conditions: NYX-PCSK9i 50 mg/kg BID PO, atorvastatin 4.9 mg/kg/day
Text: Animal experiments were approved by the governmental central committee on animal experiments (AVD5010020172064) and TNO’s animal welfare body (TNO-471 and TNO-482). Female APOE∗3-Leiden.CETP transgenic mice (11–16 weeks of age) were bred at the animal facility of TNO-InnoSer (Leiden, The Netherlands). Female animals were used in this study as they are more responsive to dietary cholesterol and fat than males and therefore typically develop atherosclerosis more rapidly than male APOE∗3-Leiden and APOE∗3-Leiden.CETP mice on cholesterol-containing diets ([33], [34]). Although measurements of atherosclerosis were not included as part of the present study, females were used with the prospect in mind that atherosclerosis studies will follow. The mice were housed under standard conditions that included 12 h light-dark cycles and access to a WTD and sterilized tap water ad libitum. Body weight, food intake, and clinical signs of behavior were monitored throughout the studies. Mice were fed a semisynthetic WTD [containing 15% saturated fat and 0.15% cholesterol (w/w)]) for a run-in period of 3 weeks, after which mice were matched into groups based on age, body weight, plasma total cholesterol, and triglyceride levels. Time t = 0 (weeks) was designated as the time at which mice were matched into groups after the 3-week run-in period in each efficacy study.
In both studies, blood samples were collected at weekly intervals via tail vein sampling after fasting the mice for 4 h. Blood samples were centrifugated (4500 g at 4°C), and the plasma was collected for the following analyses. Total plasma cholesterol levels were determined using a Cholesterol CHOD-PAP kit according to the manufacturer’s instructions. Plasma HDL-C levels were determined by first precipitating apoB-containing lipids using PEG 6000/glycine and then utilizing the Cholesterol CHOD-PAP kit ([35]). Non-HDL-C levels were determined by subtracting HDL-C levels from total cholesterol levels ([32]). Group-pooled lipoprotein profiles were determined by FPLC analysis using an AKTApurifier 10 FPLC system (GE Healthcare, Chicago, IL). Plasma PCSK9 levels were determined using a Mouse PCSK9 Quantikine ELISA kit as per the manufacturer’s protocol. ALT and AST levels of group-pooled samples were measured using the Roche Reflotron Plus System (Mannheim, Germany).

CC(C)c1c(C(=O)Nc2ccccc2)c(-c2ccccc2)c(-c2ccc(F)cc2)n1CC[C@@H](O)C[C@@H](O)CC(=O)O [atorvastatin, reference compound]
reduction in plasma total cholesterol relative to vehicle (APOE∗3-Leiden.CETP mice [1]): 27%
Body weight (mean ± SD) (APOE∗3-Leiden.CETP mice [2]; day 7): 22.1 ± 0.8
Body weight (mean ± SD) (APOE∗3-Leiden.CETP mice [2]; day 14): 22.3 ± 0.9
Body weight (mean ± SD) (APOE∗3-Leiden.CETP mice [2]; day 21): 22.1 ± 0.9
Body weight (mean ± SD) (APOE∗3-Leiden.CETP mice [2]; day 35): 22.2 ± 1.3
